These results are taken from ChEMBL document CHEMBL4354838, “Synthesis and in Vitro and in Vivo Biological Evaluation of Tissue-Specific Bisthiazole Histone Deacetylase (HDAC) Inhibitors” (J Med Chem, 2020).

Sequences of proteins named here, by UniProt entry; tags and fusion partners are left off.
UniProt Q13547, whole entry: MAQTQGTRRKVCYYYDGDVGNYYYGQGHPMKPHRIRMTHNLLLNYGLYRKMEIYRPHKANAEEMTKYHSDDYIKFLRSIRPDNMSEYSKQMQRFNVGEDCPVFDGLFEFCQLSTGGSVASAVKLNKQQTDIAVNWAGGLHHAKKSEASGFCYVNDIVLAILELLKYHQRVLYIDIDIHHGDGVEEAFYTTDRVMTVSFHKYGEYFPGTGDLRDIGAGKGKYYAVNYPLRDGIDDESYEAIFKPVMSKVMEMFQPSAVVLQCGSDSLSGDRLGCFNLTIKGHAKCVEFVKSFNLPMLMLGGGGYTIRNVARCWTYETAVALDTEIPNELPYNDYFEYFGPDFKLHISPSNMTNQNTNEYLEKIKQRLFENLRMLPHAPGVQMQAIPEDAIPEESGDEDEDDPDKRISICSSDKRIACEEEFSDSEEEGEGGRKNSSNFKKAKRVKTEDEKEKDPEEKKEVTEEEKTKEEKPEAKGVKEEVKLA

This assay has as its target Histone deacetylase 1 (Homo sapiens, UniProt Q13547). Nature of the assay: biochemical. The assay is classed as cell-based.

By IC50 is commonly meant the concentration that inhibits the measured activity by half. The low end stands for inhibition by little substance, the high end for a need for much substance.

`C[C@@H](NC(=O)c1nc(-c2nccs2)sc1C1CC1)c1ccc(C(=O)NO)cc1` had an IC50 of 279 nM.
